Measured values reported in patent publication US10239843B2 (CANCER RESEARCH TECHNOLOGY LIMITED, priority 2014, dated 2019).

The chains behind the UniProt entries cited, without tags or fusion partners. Where a name states a change or a piece, a line headed by the entry shows the natural chain unless it says otherwise.
UniProt Q86W56: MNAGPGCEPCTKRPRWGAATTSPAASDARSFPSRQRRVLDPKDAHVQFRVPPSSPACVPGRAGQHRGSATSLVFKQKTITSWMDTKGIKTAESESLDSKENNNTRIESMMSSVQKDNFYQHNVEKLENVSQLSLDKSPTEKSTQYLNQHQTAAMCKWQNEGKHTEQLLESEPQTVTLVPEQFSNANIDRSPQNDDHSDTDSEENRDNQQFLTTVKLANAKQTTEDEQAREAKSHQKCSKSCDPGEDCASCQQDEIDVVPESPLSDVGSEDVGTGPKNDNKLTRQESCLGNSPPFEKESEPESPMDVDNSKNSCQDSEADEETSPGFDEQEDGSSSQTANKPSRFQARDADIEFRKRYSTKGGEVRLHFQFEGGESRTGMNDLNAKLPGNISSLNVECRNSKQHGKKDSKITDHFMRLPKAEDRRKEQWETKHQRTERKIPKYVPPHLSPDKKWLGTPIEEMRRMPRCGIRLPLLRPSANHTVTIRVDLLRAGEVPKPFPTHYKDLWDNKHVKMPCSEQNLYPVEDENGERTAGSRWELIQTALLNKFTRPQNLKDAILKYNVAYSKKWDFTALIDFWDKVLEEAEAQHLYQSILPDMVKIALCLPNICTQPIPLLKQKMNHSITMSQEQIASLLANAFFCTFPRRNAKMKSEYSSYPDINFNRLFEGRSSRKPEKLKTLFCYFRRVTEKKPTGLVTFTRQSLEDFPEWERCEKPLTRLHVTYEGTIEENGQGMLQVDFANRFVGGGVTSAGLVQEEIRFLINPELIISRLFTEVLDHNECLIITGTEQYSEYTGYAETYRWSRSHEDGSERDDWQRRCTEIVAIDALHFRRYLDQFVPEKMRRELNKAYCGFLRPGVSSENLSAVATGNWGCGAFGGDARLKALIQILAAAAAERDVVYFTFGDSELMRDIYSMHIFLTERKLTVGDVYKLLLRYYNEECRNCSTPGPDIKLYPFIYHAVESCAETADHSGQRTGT

Target: Human Full Length PARG (Homo sapiens (Human), UniProt Q86W56)
Experiment: PARG enzyme assay (TR-FRET)
Type: biochemical
Conditions: read-out: PARG Biochem IC50

## 1-[(2,5-Dimethylpyrazol-3-yl)methyl]-3-[(1-methylpyrazol-4-yl)methyl]-2,4-dioxo-N-[1-(trideuteriomethyl)cyclopropyl]quinazoline-6-sulfonamide [Example 490]
  IC50: 29 nM
